This assay addresses melanocortin-1 (MC1) receptor on B16/F1 murine melanoma cells (mouse (B16/F1 murine melanoma cells)) (UniProt Q01727). Put plainly: cell-based or functional assay.

Protein sequences, listed by entry. Tags and fused reporters are not part of them. Lines headed by an entry give the natural chain unless they say otherwise; changes in a name come on top.
UniProt Q01727: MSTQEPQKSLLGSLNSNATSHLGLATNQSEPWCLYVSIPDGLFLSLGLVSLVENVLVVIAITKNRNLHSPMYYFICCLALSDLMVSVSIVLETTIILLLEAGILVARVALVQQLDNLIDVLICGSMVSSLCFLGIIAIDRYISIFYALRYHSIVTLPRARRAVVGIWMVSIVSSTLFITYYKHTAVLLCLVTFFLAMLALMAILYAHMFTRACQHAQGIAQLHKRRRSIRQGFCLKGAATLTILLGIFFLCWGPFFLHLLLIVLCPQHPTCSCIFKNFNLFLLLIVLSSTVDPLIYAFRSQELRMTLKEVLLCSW

Take 111In-DOTA-Nle-CycMSHhex (peptide): the tumor uptake in B16/F1 melanoma-bearing C57 mice at 2 h with co-injection of 10 µg of non-radiolabeled NDP-MSH, as percent of the uptake without co-injection is 4.2%.

These data come from patent US9493537.
